From PubChem BioAssay AID624351 (Southern Research Specialized Biocontainment Screening …, 2012)
Only a part is listed here, and it is no random draw. Calls of active or inactive are those of the source.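 The calls were made as follows: active = inhibition of 30% or more at any tested dose; inconclusive = primary hits over the limit that were never retested; inactive = the rest.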

Assay: ADP Hunter readout inhibition without MgcRacGAP – biochemical, coupled enzyme counter-screen, artefact control for MgcRacGAP inhibitor project, dose response (AID 624351);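 also: signal is the ADP detection kit reading of free GDP without any GAP enzyme; 0% = median positive control wells and 100% = median negative control wells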
Conditions: fluorescence, no MgcRacGAP; at 80 µM (top of the series)
In the case of C[N+]1=C2C=CC=CC=C2SC12C([N+](=O)[O-])=CC([N+](=O)[O-])=C[C-]2[N+](=O)[O-] (stereo unspecified), the inhibition is reported as inactive: 4.41%.
